pEC50, pIC50: −log10 of the molar value.
Columns and labels:
[1] = Rat serum stability (activity remaining, CHO-VPAC2 DiscoveRx read-out); type: in vitro ADME; settings: 10 μM peptide in rat serum, overnight at 37° C. vs 4° C. with aprotinin; estimated by EC50, 4C/EC50, 37C
Procedure: The rat serum is stored at 4° C. until use and is used within two weeks. […] The aliquot is stored with aprotinin at 4° C. The aliquot is stored without aprotinin at 37° C. The aliquots are incubated overnight. […] The plate(s) are washed with cells twice in incubation buffer. The plates are allowed to hold 50 μL incubation media per well for 15 minutes. 50 μL solution per well is transferred to the cells from the plate prepared with 11 serial 5× dilutions of peptide for the 4° C. and 37° C. aliquot for each peptide studied, using the maximal concentrations that are indicated by the primary screen, in duplicate. This step dilutes the peptide concentration by a factor of two. The cells are incubated at room temperature for 30 minutes. […] The cells are incubated on the shaker (300 rpm) for 1 hour. Normal procedure with the DiscoveRx kit is followed. cAMP standards are included in column 12. EC50 values are determined from the cAMP assay data.

By UniProt entry, the sequences of proteins in these tests, tags left out. Residues count along the entry.
UniProt P32241, 31-457: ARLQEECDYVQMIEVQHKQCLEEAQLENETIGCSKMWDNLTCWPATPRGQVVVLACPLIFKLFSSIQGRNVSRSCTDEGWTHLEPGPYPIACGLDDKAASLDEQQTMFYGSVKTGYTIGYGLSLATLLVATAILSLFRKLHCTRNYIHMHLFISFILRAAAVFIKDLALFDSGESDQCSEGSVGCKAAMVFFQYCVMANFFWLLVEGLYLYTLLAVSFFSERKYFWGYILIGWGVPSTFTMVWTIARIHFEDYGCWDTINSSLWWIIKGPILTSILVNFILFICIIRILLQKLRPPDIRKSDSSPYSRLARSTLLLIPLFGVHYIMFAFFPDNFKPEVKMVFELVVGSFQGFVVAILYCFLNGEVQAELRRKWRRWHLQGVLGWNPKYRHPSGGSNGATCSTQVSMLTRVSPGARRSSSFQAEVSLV
UniProt P30083, 31-459: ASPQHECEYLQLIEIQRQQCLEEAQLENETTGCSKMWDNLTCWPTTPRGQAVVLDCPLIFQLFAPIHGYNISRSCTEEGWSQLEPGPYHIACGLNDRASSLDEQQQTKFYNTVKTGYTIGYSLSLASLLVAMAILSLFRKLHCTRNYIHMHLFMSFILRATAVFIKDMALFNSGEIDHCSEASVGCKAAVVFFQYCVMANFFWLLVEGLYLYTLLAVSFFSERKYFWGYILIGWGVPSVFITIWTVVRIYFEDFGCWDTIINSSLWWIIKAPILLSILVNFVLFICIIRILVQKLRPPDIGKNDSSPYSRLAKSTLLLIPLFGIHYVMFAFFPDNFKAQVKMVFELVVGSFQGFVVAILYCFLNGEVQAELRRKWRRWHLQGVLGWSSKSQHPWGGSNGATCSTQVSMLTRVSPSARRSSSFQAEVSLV

rat VPAC2 receptor = molecular target: T1, rat VPAC2 receptor (Rattus norvegicus, UniProt P35000); experiment: DiscoveRx cAMP assay, in vitro potency at rat VPAC2 receptor; type: cell-based
T1 construct: expressed in transfected cells; host or cells: CHO-PO (transient, Lipofectamine)
T1 sequence (P35000 23-437): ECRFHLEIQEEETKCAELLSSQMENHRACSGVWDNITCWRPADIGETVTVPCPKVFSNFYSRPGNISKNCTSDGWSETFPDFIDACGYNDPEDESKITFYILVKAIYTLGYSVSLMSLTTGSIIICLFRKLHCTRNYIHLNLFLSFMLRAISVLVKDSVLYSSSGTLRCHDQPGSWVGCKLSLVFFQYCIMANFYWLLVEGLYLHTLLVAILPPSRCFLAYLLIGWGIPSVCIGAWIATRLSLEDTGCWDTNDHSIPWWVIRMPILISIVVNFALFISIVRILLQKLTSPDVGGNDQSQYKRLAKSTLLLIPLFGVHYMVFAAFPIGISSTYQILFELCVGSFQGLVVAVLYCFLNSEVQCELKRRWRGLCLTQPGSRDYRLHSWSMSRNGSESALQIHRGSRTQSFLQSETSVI
Procedure: (§1) DiscoveRx: CHO-PO cells are transiently transfected with rat VPAC1 or VPAC2 receptor DNA using commercially available transfection reagents (Lipofectamine from Invitrogen). The cells are seeded at a density of 10,000/well in a 96-well plate and are allowed to grow for 3 days in […] culture medium. At day 3, the assay is performed.
(§2) On the day of the experiment, the medium is removed. Also, the cells are washed twice. The cells are incubated in assay buffer plus IBMX for 15 minutes at room temperature. Afterwards, the stimuli are added and are dissolved in assay buffer. The stimuli are present for 30 minutes. Then, the assay buffer is gently removed. The cell lysis reagent of the DiscoveRx cAMP kit is added. Thereafter, the standard protocol for developing the cAMP signal as described by the manufacturer is used (DiscoveRx Inc., USA). EC50 values for cAMP generation are calculated from the raw signal or are based on absolute cAMP levels as determined by a standard curve performed on each plate.
(§3) Results for each agonist are the mean of two independent runs. Rat VPAC1 and VPAC2 results are only generated using the DiscoveRx assay.

human PAC1 = molecular target: T2, human PAC1 (Homo sapiens, UniProt P41586); experiment: Filter binding assay, 125I-labeled PACAP-27 tracer, PAC1 membranes
T2 construct: expressed in transfected cells
T2 sequence (P41586 21-468): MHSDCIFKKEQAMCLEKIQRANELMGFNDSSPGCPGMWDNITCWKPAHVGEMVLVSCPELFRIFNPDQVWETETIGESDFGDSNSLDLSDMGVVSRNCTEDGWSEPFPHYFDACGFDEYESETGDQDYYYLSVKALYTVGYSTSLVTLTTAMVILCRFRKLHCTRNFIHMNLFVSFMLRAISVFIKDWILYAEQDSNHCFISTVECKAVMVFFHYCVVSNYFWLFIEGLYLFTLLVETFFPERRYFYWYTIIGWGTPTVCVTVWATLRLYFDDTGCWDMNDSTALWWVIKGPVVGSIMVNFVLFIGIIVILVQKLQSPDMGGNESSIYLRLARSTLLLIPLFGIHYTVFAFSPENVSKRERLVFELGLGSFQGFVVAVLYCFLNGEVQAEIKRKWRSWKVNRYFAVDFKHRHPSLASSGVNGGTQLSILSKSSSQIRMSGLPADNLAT

human VPAC1 = molecular target: T3, human VPAC1 (Homo sapiens, UniProt P32241); experiment: Filter binding assay, 125I-labeled VIP tracer, VPAC1 membranes
T3 construct: expressed in transfected cells

human VPAC2 = molecular target: T4, human VPAC2 (Homo sapiens, UniProt P41587); experiment: Alpha screen cAMP assay, in vitro potency at human VPAC2 receptor; type: cell-based
T4 construct: expressed in transfected cells
T4 sequence (P41587 24-438): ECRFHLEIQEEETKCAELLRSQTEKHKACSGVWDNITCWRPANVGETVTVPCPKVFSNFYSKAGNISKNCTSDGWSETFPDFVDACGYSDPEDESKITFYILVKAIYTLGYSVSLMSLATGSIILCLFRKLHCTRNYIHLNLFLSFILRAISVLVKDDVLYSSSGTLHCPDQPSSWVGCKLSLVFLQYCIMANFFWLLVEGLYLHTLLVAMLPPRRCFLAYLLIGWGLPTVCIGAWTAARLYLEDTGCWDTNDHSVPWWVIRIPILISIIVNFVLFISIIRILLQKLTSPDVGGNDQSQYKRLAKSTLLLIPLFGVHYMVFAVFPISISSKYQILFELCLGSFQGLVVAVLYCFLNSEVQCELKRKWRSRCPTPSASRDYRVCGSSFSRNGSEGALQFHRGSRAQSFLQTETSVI

rat VPAC1 receptor = molecular target: T5, rat VPAC1 receptor (Rattus norvegicus, UniProt P30083); experiment: DiscoveRx cAMP assay, in vitro potency at rat VPAC1 receptor; type: cell-based
T5 construct: expressed in transfected cells; host or cells: CHO-PO (transient, Lipofectamine)
Procedure: as §1, §2, §3

Structure (SMILES) | Rat Serum Stability (estimated purity in % after overnight incub.) [1] [%] | pEC50 (rat VPAC2 receptor) | pIC50 (human PAC1) | pIC50 (human VPAC1) | pEC50 (human VPAC2) | pEC50 (rat VPAC1 receptor)
CCCCCC(=O)N[C@@H](Cc1c[nH]cn1)C(=O)N[C@@H](CO)C(=O)N[C@@H](CC(=O)O)C(=O)N[C@@H](C)C(=O)N[C@H](C(=O)N[C@@H](Cc1ccccc1)C(=O)N[C@H](C(=O)N[C@@H](CC(=O)O)C(=O)N[C@@H](CC(N)=O)C(=O)N[C@@H](Cc1ccc(O)cc1)C(=O)N[C@H](C(=O)N[C@@H](CCCNC(=N)N)C(=O)NC(C)(C)C(=O)N[C@@H](CCCNC(=N)N)C(=O)NC(C)(C)C(=O)N[C@@H](CCC(N)=O)C(=O)N[C@H](C(=O)N[C@@H](C)C(=O)N[C@@H](C)C(=O)NC(C)(C)C(=O)N[C@@H](CCCCN)C(=O)N[C@@H](Cc1ccc(O)cc1)C(=O)N[C@@H](CC(C)C)C(=O)N[C@@H](CCC(N)=O)C(=O)N[C@@H](CO)C(=O)N[C@H](C(=O)N[C@@H](CCCCN)C(=O)NC(C)(C)C(=O)N[C@@H](CCCCN)C(=O)NCC(=O)NCC(=O)N1CCC[C@H]1C(=O)N[C@@H](CO)C(=O)N[C@@H](CO)C(=O)NCC(=O)N[C@@H](C)C(=O)N1CCC[C@H]1C(=O)N1CCC[C@H]1C(=O)N1CCC[C@H]1C(=O)N[C@@H](CO)C(=O)O)[C@@H](C)CC)C(C)C)[C@@H](C)O)[C@@H](C)O)C(C)C [Agonist P405] | 79.54 | 10.40 | < 4.60 | < 5.52 |  | 
CCCCCC(=O)N[C@@H](Cc1c[nH]cn1)C(=O)N[C@@H](CO)C(=O)N[C@@H](CC(=O)O)C(=O)N[C@@H](C)C(=O)N[C@H](C(=O)N[C@@H](Cc1ccccc1)C(=O)N[C@H](C(=O)N[C@@H](CC(=O)O)C(=O)N[C@@H](CCC(N)=O)C(=O)N[C@@H](Cc1ccc(O)cc1)C(=O)N[C@H](C(=O)N[C@@H](CCCNC(=N)N)C(=O)NC(C)(C)C(=O)N[C@@H](CCCNC(=N)N)C(=O)NC(C)(C)C(=O)N[C@@H](CCC(N)=O)C(=O)N[C@H](C(=O)N[C@@H](C)C(=O)N[C@@H](C)C(=O)NC(C)(C)C(=O)N[C@@H](CCCCN)C(=O)N[C@@H](Cc1ccc(O)cc1)C(=O)N[C@@H](CC(C)C)C(=O)N[C@@H](CCC(N)=O)C(=O)N[C@@H](CO)C(=O)N[C@H](C(=O)N[C@@H](CCCCN)C(=O)NC(C)(C)C(=O)N[C@@H](CCCCN)C(=O)NCC(=O)NCC(=O)N1CCC[C@H]1C(=O)N[C@@H](CO)C(=O)N[C@@H](CO)C(=O)NCC(=O)N[C@@H](C)C(=O)N1CCC[C@H]1C(=O)N1CCC[C@H]1C(=O)N1CCC[C@H]1C(=O)N[C@@H](CO)C(=O)O)[C@@H](C)CC)C(C)C)[C@@H](C)O)[C@@H](C)O)C(C)C [Agonist P406] | 89.83 | 10.40 | < 4.60 | < 5.52 | 9.92 | 
CCCCCC(=O)N[C@@H](Cc1c[nH]cn1)C(=O)N[C@@H](CO)C(=O)N[C@@H](CC(=O)O)C(=O)N[C@@H](C)C(=O)N[C@H](C(=O)N[C@@H](Cc1ccccc1)C(=O)N[C@H](C(=O)N[C@@H](CC(=O)O)C(=O)N[C@@H](CCC(N)=O)C(=O)N[C@@H](Cc1ccc(O)cc1)C(=O)N[C@H](C(=O)N[C@@H](CCCNC(=N)N)C(=O)NC(C)(C)C(=O)N[C@@H](CCCNC(=N)N)C(=O)NC(C)(C)C(=O)N[C@@H](CCC(N)=O)C(=O)N[C@@H](CC(C)C)C(=O)N[C@@H](C)C(=O)N[C@@H](C)C(=O)NC(C)(C)C(=O)N[C@@H](CCCCN)C(=O)N[C@@H](Cc1ccc(O)cc1)C(=O)N[C@@H](CC(C)C)C(=O)N[C@@H](CCC(N)=O)C(=O)N[C@@H](CO)C(=O)N[C@H](C(=O)N[C@@H](CCCCN)C(=O)NC(C)(C)C(=O)N[C@@H](CCCCN)C(=O)NCC(=O)NCC(=O)N1CCC[C@H]1C(=O)N[C@@H](CO)C(=O)N[C@@H](CO)C(=O)NCC(=O)N[C@@H](C)C(=O)N1CCC[C@H]1C(=O)N1CCC[C@H]1C(=O)N1CCC[C@H]1C(=O)N[C@@H](CO)C(=O)O)[C@@H](C)CC)[C@@H](C)O)[C@@H](C)O)C(C)C [Agonist P407] | 151.54 | 10.52 |  |  | 9.92 | 
CCCCCC(=O)N[C@@H](Cc1c[nH]cn1)C(=O)N[C@@H](CO)C(=O)N[C@@H](CC(=O)O)C(=O)N[C@@H](C)C(=O)N[C@H](C(=O)N[C@@H](Cc1ccccc1)C(=O)N[C@H](C(=O)N[C@@H](CC(=O)O)C(=O)N[C@@H](CCC(N)=O)C(=O)N[C@@H](Cc1ccc(OC)cc1)C(=O)N[C@H](C(=O)N[C@@H](CCCNC(=N)N)C(=O)NC(C)(C)C(=O)N[C@@H](CCCNC(=N)N)C(=O)NC(C)(C)C(=O)N[C@@H](CCC(N)=O)C(=O)N[C@@H](CC(C)C)C(=O)N[C@@H](C)C(=O)N[C@@H](C)C(=O)NC(C)(C)C(=O)N[C@@H](CCCCN)C(=O)N[C@@H](Cc1ccc(O)cc1)C(=O)N[C@@H](CC(C)C)C(=O)N[C@@H](CCC(N)=O)C(=O)N[C@@H](CO)C(=O)N[C@H](C(=O)N[C@@H](CCCCN)C(=O)NC(C)(C)C(=O)N[C@@H](CCCCN)C(=O)NCC(=O)NCC(=O)N1CCC[C@H]1C(=O)N[C@@H](CO)C(=O)N[C@@H](CO)C(=O)NCC(=O)N[C@@H](C)C(=O)N1CCC[C@H]1C(=O)N1CCC[C@H]1C(=O)N1CCC[C@H]1C(=O)N[C@@H](CO)C(=O)O)[C@@H](C)CC)[C@@H](C)O)[C@@H](C)O)C(C)C [Agonist P408] | 142.44 | 10.40 | < 4.60 | < 5.52 | 9.92 | 9.46
CCCCCC(=O)N[C@@H](Cc1c[nH]cn1)C(=O)N[C@@H](CO)C(=O)N[C@@H](CCC(=O)O)C(=O)N[C@@H](C)C(=O)N[C@H](C(=O)N[C@@H](Cc1ccccc1)C(=O)N[C@H](C(=O)N[C@@H](CCC(=O)O)C(=O)N[C@@H](CCC(N)=O)C(=O)N[C@@H](Cc1ccc(OC)cc1)C(=O)N[C@H](C(=O)N[C@@H](CCCNC(=N)N)C(=O)NC(C)(C)C(=O)N[C@@H](CCCNC(=N)N)C(=O)NC(C)(C)C(=O)N[C@@H](CCC(N)=O)C(=O)N[C@@H](CC(C)C)C(=O)N[C@@H](C)C(=O)N[C@@H](C)C(=O)NC(C)(C)C(=O)N[C@@H](CCCCN)C(=O)N[C@@H](Cc1ccc(O)cc1)C(=O)N[C@@H](CC(C)C)C(=O)N[C@@H](CCC(N)=O)C(=O)N[C@@H](CO)C(=O)N[C@H](C(=O)N[C@@H](CCCCN)C(=O)NC(C)(C)C(=O)N[C@@H](CCCCN)C(=O)NCC(=O)NCC(=O)N1CCC[C@H]1C(=O)N[C@@H](CO)C(=O)N[C@@H](CO)C(=O)NCC(=O)N[C@@H](C)C(=O)N1CCC[C@H]1C(=O)N1CCC[C@H]1C(=O)N1CCC[C@H]1C(=O)N[C@@H](CO)C(=O)O)[C@@H](C)CC)[C@@H](C)O)[C@@H](C)O)C(C)C [Agonist P409] |  |  | < 4.60 | < 5.52 | 9.72 | 

Reference: patent US20080194482A1, “Selective Apac2 Receptor Peptide Agonists” (priority 2005, published 2008)
